According to ChEMBL document CHEMBL3351549, “Discovery of a Potent and Selective BCL-XL Inhibitor with in Vivo Activity” (ACS Med Chem Lett, 2014):

Species on record: Homo sapiens
Experiment: Selectivity index, ratio of Ki for BCL-2 (unknown origin) to Ki for BCL-XL (unknown origin)

Q: Which Ratio Ki does the source give for CN(C)CC#Cc1ccc(OCCCc2sc(N3CCc4cccc(C(=O)Nc5nc6ccccc6s5)c4C3)nc2C(=O)O)c(F)c1 [A-1155463] here?
A: > 1000
